Measurements published in US20240252795A1, “INGESTIBLE DEVICE FOR DELIVERY OF THERAPEUTIC AGENT TO THE GASTROINTESTINAL TRACT” (BIORA THERAPEUTICS, INC., priority 2018, published 2024).

Assay: PK of regular human insulin (NOVOLIN R) after SC or intra-jejunal jet delivery, blood insulin levels
Type: in vivo, swine

NOVOLIN® R: regular human insulin (NOVOLIN® R)
Tmax (IJ administration by jet delivery device, blood insulin, individual animal): 75 min | Tmax of blood insulin (SC administration, swine, individual animals): 75 min
